Measurements: US20160016995

Target: GFP-pdt#5 (Example 1) [GFP: P42212]

Row | Protein | GFP-pdt#5 remaining at maximal mf-Lon expression | GFP-pdt#3 (Example 2 name) degradation across ATc levels | aTc concentration needed for maximal GFP-pdt#5 degradation
1 | mf-Lon fused to the E. coli ssrA tag variant ec-AAV (protein) MSKKIKLPIFQIRGSFIVPGIKENLEVGRKNTLASVNYAIKNSNNQMIAIPQIDASVEKPEFSDLHEFGILIDFEVIKEWKDNSLTISTNPIQRCKVISFFENEDQVPYAEVELIESINDFSDEELKELIEKISDAIKTKASLVTKQIKQLISGESDDLSLAFDSIMFKLAPSKILTNPEYITSPSLKTRWSIIEKIIFAEDGIITRNAESIDAARQKNEIEQELNHKLKEKMDKQQKEYYLREKMRIIKDELEDEDDSDDSSLEKYKERLAKEPFPEEVKRKIMASIKRVEALQSGTPEWNTEKNYIDWMMSIPWWEETEDLTDLKYAKKILDKHHYGMKKVKERIIEYLAVKTKTKSLKAPIITLVGPPGVGKTSLAKSIAEAVGKNFVKVSLGGVKDESEIRGHRKTYVGSMPGRIIQTMKRAKVKNPLFLLDEIDKMASDHRGDPASAMLEVLDPEQNKEFSDHYIEEPYDLSQVMFIATANYPEDIPEALYDRMEIINLSSYTEIEKVKIAQDYLVPKAIEQHELTSEEISFTEGAINEIIKYYTREAGVRQLERHINSIIRKYIVKNLNGEMDKIVIDEKQVNDLLGKRIFDHTEKQEESQIGVVTGLAYTQFGGDILPIEVSLYPGKGNLILTGKLGEVMKESATIALTYVKSNFEKFGVDKKVFEENDIHVHVPEGAVPKDGPSAGITITTALISALSDKPVSKEIGMTGEITLRGNVLPIGGLREKSISASRSGLKTIIIPKKNERDLDEIPDEVKAKLKIIPAEKYEEVFAIVFKTK | degrade GFP-pdt#5 to 38% of its initial levels at maximal expression | – | –
2 | mf-Lon fused to the E. coli ssrA tag variant ec-ASV (protein) MSKKIKLPIFQIRGSFIVPGIKENLEVGRKNTLASVNYAIKNSNNQMIAIPQIDASVEKPEFSDLHEFGILIDFEVIKEWKDNSLTISTNPIQRCKVISFFENEDQVPYAEVELIESINDFSDEELKELIEKISDAIKTKASLVTKQIKQLISGESDDLSLAFDSIMFKLAPSKILTNPEYITSPSLKTRWSIIEKIIFAEDGIITRNAESIDAARQKNEIEQELNHKLKEKMDKQQKEYYLREKMRIIKDELEDEDDSDDSSLEKYKERLAKEPFPEEVKRKIMASIKRVEALQSGTPEWNTEKNYIDWMMSIPWWEETEDLTDLKYAKKILDKHHYGMKKVKERIIEYLAVKTKTKSLKAPIITLVGPPGVGKTSLAKSIAEAVGKNFVKVSLGGVKDESEIRGHRKTYVGSMPGRIIQTMKRAKVKNPLFLLDEIDKMASDHRGDPASAMLEVLDPEQNKEFSDHYIEEPYDLSQVMFIATANYPEDIPEALYDRMEIINLSSYTEIEKVKIAQDYLVPKAIEQHELTSEEISFTEGAINEIIKYYTREAGVRQLERHINSIIRKYIVKNLNGEMDKIVIDEKQVNDLLGKRIFDHTEKQEESQIGVVTGLAYTQFGGDILPIEVSLYPGKGNLILTGKLGEVMKESATIALTYVKSNFEKFGVDKKVFEENDIHVHVPEGAVPKDGPSAGITITTALISALSDKPVSKEIGMTGEITLRGNVLPIGGLREKSISASRSGLKTIIIPKKNERDLDEIPDEVKAKLKIIPAEKYEEVFAIVFKTK | – | the weaker ec-ASV variant had only a small effect on mf-Lon protein levels | reduced aTc concentration required to induce maximal GFP-pdt#5 degradation
